Test results: US20110111016A1, “NON-DNA BASE-CONTAINING POLYNUCLEOTIDE COMPOSITIONS AND THEIR USE FOR THE MODULATION OF IMMUNE RESPONSES” (priority 2009, published 2011)

The substances below were run on C57BL/6 mice (assay: Antibody response against human serum albumin in mice (anti-HSA IgG ELISA end-point titers)). Conditions: HSA 1 μg + polynucleotide 10 μg in saline, no particulate carrier, I.M. day 0 and 21, sera day 29-30.
Type: in vivo

Substance | Anti-HSA IgG antibody titers (head: IgG total Anti-H1N1 titers), Mean
GIG (DNA GNG; Central inosine, sugar and linkages not given here, further chemistry not given here) [SEQ ID NO: 6, 5′-OH, 3′-OH non-DNA base-containing polynucleotide] | 4003
GGGTGGNebNebNeb (DNA GGGTGGNNN; Three 3' nebularines, sugar and linkages not given here, further chemistry not given here) [SEQ ID NO: 5, 5′-OH, 3′-OH non-DNA base-containing polynucleotide] | 14516
NebGGTGNeb (DNA NGGTGN; Nebularine at both ends, sugar and linkages not given here, further chemistry not given here) [SEQ ID NO: 1, 5′-OH, 3′-OH non-DNA base-containing polynucleotide] | 88
IIGTII [SEQ ID NO: 3] | 364
GUG (DNA GNG; Central uracil in DNA, sugar and linkages not given here, further chemistry not given here) [SEQ ID NO: 8, 5′-OH, 3′-OH non-DNA base-containing polynucleotide] | 2
GNebG (DNA GNG; Central nebularine, sugar and linkages not given here, further chemistry not given here) [SEQ ID NO: 4, 5′-OH, 3′-OH non-DNA base-containing polynucleotide] | 5662
UUGTUU [SEQ ID NO: 2] | 0
GGGTGGUUU (DNA GGGTGGNNN; Three 3' uracils, sugar and linkages not given here, further chemistry not given here) [SEQ ID NO: 9, 5′-OH, 3′-OH non-DNA base-containing polynucleotide] | 0
GGGTGGIII (DNA GGGTGGNNN; Three 3' inosines, sugar and linkages not given here, further chemistry not given here) [SEQ ID NO: 7, 5′-OH, 3′-OH non-DNA base-containing polynucleotide] | 168
